Counter-ions that a name gives are not always drawn. Like-named read-outs stand apart in the source and are kept apart here.
How the values were obtained:
[1] = target: β1 receptor (cells expressing human ADRB1 gene) (Homo sapiens (Human), UniProt P08588); assay: Agonistic effect on β1 receptor by HTRF cAMP method
Protocol: (§1) β1 receptor is a G protein-coupled receptor, which is mainly coupled with Gs protein, and can activate adenylate cyclase activity through the Gs protein after being activated by binding to the ligand, thereby increasing the level of intracellular cAMP. In this experiment, the agonistic activity of the compounds against the β1 receptor in vitro was assayed by the cAMP kit.
(§2) β1 cells (expressing human ADRB1 gene) from ICE Bioscience Inc. were grown under standard conditions. The cells were collected and diluted with 1× Stimulation Buffer, and 9 μL of the cell dilution was added to a white low-volume 384-well plate with 4000 cells seeded in each well. Compounds were serially diluted in DMSO in a 5-fold gradient to obtain 10 concentrations. Before testing, compounds that had been serially diluted in DMSO were subjected to 100-fold dilution with 1× Stimulation Buffer to obtain compound working solutions. The concentration of the vehicle DMSO was 0.1%. Eu-cAMP and ULight™-anti-cAMP were diluted to the working concentration with Detection buffer. 5 μL of Eu-cAMP diluent and 5 μL of ULight™-anti-cAMP diluent were sequentially added into corresponding experiment wells. After 1 h of incubation at room temperature, readings at 665 nm and 620 nm were measured under the excitation wavelength of 330 nm using a Biotek microplate reader. The activity of the compounds was obtained by plotting through Ratio (665/620) against the concentration of the compounds, fitting the curve by a nonlinear regression method using GraphPad Prism 7 software and calculating EC50.

By UniProt entry, the sequences of proteins in these tests, tags left out.
UniProt P08588, whole entry: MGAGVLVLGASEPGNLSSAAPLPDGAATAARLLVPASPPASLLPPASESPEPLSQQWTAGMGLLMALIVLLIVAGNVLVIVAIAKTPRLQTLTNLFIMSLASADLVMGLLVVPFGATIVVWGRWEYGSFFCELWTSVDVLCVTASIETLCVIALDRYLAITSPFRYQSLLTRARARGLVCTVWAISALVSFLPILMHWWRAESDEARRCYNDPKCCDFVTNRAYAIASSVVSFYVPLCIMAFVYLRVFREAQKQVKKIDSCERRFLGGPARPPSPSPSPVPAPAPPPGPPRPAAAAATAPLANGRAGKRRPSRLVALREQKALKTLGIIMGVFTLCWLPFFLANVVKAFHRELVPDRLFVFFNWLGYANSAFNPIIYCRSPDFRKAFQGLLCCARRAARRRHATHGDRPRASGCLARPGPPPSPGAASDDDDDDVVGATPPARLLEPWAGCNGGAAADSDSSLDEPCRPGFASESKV
UniProt P07550, whole entry: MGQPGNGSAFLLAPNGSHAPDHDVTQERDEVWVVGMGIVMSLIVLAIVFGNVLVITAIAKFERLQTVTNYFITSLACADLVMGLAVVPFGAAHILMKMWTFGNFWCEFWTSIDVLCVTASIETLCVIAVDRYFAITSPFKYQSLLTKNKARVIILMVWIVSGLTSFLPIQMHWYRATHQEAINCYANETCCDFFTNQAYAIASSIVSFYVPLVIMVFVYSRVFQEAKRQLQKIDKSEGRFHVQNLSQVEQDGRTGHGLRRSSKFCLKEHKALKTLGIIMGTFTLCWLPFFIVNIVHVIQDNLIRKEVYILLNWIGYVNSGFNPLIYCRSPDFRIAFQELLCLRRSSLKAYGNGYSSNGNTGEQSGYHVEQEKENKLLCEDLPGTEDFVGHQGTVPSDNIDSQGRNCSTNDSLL
UniProt P20309, whole entry: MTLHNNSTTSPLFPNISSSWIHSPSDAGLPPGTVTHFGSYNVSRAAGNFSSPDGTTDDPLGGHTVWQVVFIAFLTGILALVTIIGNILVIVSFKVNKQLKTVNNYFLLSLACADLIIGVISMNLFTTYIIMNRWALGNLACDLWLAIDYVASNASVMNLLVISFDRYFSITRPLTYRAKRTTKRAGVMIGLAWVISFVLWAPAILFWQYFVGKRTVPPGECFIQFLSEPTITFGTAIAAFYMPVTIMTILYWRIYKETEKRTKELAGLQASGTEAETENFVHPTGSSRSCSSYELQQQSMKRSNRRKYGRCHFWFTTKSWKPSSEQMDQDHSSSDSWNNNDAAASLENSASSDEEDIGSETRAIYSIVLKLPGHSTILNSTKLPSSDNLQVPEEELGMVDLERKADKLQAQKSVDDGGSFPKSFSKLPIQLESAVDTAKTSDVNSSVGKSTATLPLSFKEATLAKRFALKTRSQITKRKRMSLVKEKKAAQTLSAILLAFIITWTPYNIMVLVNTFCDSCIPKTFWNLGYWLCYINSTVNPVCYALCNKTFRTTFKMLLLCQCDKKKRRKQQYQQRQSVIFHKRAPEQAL
UniProt P08172, whole entry: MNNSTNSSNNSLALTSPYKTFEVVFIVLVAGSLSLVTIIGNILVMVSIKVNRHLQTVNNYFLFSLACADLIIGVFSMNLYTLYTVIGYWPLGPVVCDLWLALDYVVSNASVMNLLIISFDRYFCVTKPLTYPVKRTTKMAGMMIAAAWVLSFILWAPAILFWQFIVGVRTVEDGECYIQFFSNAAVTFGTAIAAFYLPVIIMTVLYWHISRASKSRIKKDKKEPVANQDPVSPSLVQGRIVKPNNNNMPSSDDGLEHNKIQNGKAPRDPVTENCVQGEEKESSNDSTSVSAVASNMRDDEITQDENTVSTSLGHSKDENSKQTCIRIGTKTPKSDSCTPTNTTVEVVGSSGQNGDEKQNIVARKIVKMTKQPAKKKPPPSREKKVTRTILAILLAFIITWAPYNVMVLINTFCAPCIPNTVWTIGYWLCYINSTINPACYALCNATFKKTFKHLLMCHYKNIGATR

[2] = target: β2 receptor (cells expressing human ADRB2 gene) (Homo sapiens (Human), UniProt P07550); assay: Agonistic effect on β2 receptor by HTRF cAMP method
Protocol: as §1, with “β2” for “β1”
as §2, with “β2” for “β1”, “ADRB2” for “ADRB1”, “1000” for “4000”

M3 receptor = M3 receptor (Homo sapiens (Human), UniProt P20309); assay: M3 receptor affinity test (3H-NMS competition); details: read-out: IC50, activity against the M3 receptor in vitro, 0.2 nM 3H-NMS, M3 receptor membrane protein, 2 h at room temperature
Protocol: M3 receptor is a G protein-coupled receptor. In this experiment, the activity of test compounds against the M3 receptor in vitro was assayed by the competition of radioisotope labeled NMS and non-isotope labeled test compounds for an M3 binding site.
(§3) The experiment was performed by a radioisotope affinity assay. The M3 receptor membrane protein was prepared at 10 μg/mL by Biology Department of WuXi AppTec, and compounds were serially diluted in a 2.5-fold gradient in DMSO to obtain 10 concentrations. Radioisotope 3H-NMS was prepared at 0.2 nM in an assay buffer (10 mM HEPES, 1 mM MgCl2, pH 7.40). In formal testing, the experimental system comprising 1 of the test compound, 100 μL of M3 receptor membrane protein and 100 μL of radioisotope was shaken in a shaker at 300 RPM for 2 h at room temperature. A GF/C plate (Perkin Elmer, Cat No. 6055690) was prefoamed with 0.3% PEI, and the membrane proteins in the reaction solution were collected by filtration onto the GF/C plate. The signal values were read by a Perkin Elmer Microbeta2 instrument and the inhibition rate for each concentration point was shown as a percentage.

M2 receptor = M2 receptor (Homo sapiens (Human), UniProt P08172); assay: M2 receptor affinity test (3H-NMS competition); details: read-out: IC50, activity against the M2 receptor in vitro, 0.2 nM 3H-NMS, M2 receptor membrane protein, 2 h at room temperature
Protocol: M2 receptor is a G protein-coupled receptor. In this experiment, the activity of test compounds against the M2 receptor in vitro was assayed by the competition of radioisotope labeled NMS and non-isotope labeled test compounds for an M2 binding site.
as §3, with “The M2 receptor membrane” for “The experiment was performed by a radioisotope affinity assay. The M3 receptor membrane”, “prepared at 100 μg/mL by” for “prepared at 10 μg/mL by”, “comprising 1 μL of the” for “comprising 1 of the”, “μL of M2 receptor membrane” for “μL of M3 receptor membrane”

[3] = read-out: EC50, agonistic activity against the β1 receptor in vitro, 1 h incubation at room temperature, tested form: TFA
[4] = read-out: EC50, agonistic activity against the β2 receptor in vitro, 1 h incubation at room temperature, tested form: TFA

| Structure (SMILES) | EC50 ([1]; read-out: EC50, agonistic activity against the β1 receptor in vitro, 1 h incubation at room temperature, tested form: formate) [nM] | EC50 ([2]; read-out: EC50, agonistic activity against the β2 receptor in vitro, 1 h incubation at room temperature, tested form: formate) [nM] | IC50 (M3 receptor; tested form: formate) [nM] | IC50 (M2 receptor; tested form: formate) [nM] | EC50 [1, 3] [nM] | EC50 [2, 4] [nM] | IC50 (M3 receptor; tested form: TFA) [nM] | IC50 (M2 receptor; tested form: TFA) [nM] |
| --- | --- | --- | --- | --- | --- | --- | --- | --- |
| Cc1ccc(C(O)(C(=O)O[C@H]2CC[C@H](N(C)CCCn3cnc4cc(CNC[C@H](O)c5ccc(O)c6[nH]c(=O)ccc56)c5c(c43)CCC5)CC2)c2cccs2)s1 (single isomer, unassigned) [Formate salt of compound 39] | 300 | 21.9 | 0.533 | 1.25 | – | – | – | – |
| CN(CCCn1nnc2cc(CNC[C@H](O)c3ccc(O)c4[nH]c(=O)ccc34)c3c(c21)CCC3)[C@H]1CC[C@H](OC(=O)C(O)(c2cccs2)c2ccc(Br)s2)CC1 (single isomer, unassigned) [Trifluoroacetate salt of compound 15] | – | – | – | – | 382 | 1.89 | 0.198 | 0.13 |
| CN(CCCn1nnc2cc(CNC[C@H](O)c3ccc(O)c4[nH]c(=O)ccc34)c3c(c21)CCC3)[C@H]1CC[C@H](OC(=O)C(O)(c2cccs2)c2ccc(Br)s2)CC1 (single isomer, unassigned) [Trifluoroacetate salt of compound 16] | – | – | – | – | 276 | 2.16 | 0.255 | 0.104 |
| CN(CCCn1nnc2cc(CNC[C@H](O)c3ccc(O)c4[nH]c(=O)ccc34)c3c(c21)CCC3)[C@H]1CC[C@H](OC(=O)C(O)(c2cccs2)c2ccc(Cl)s2)CC1 (single isomer, unassigned) [Trifluoroacetate salt of compound 28] | – | – | – | – | 253 | 1.41 | 0.136 | 0.0825 |
| CN(CCCn1nnc2cc(CNC[C@H](O)c3ccc(O)c4[nH]c(=O)ccc34)c3c(c21)CCC3)[C@H]1CC[C@H](OC(=O)C(O)(c2cccs2)c2ccc(Cl)s2)CC1 (single isomer, unassigned) [Trifluoroacetate salt of compound 29] | – | – | – | – | 432 | 2.73 | 0.324 | 0.146 |

Reference: US20230322745A1, “FUSED TRICYCLIC DERIVATIVE AND PHARMACEUTICAL APPLICATION THEREOF” (CHIA TAI TIANQING PHARMACEUTICAL GROUP CO., LTD., priority 2020, published 2023)
